Our source for the Ki values is patent publication US6579881B2 (Eisai Co., Ltd., priority 1997, dated 2003).

The chains behind the UniProt entries cited, without tags or fusion partners.
UniProt P14842, whole entry: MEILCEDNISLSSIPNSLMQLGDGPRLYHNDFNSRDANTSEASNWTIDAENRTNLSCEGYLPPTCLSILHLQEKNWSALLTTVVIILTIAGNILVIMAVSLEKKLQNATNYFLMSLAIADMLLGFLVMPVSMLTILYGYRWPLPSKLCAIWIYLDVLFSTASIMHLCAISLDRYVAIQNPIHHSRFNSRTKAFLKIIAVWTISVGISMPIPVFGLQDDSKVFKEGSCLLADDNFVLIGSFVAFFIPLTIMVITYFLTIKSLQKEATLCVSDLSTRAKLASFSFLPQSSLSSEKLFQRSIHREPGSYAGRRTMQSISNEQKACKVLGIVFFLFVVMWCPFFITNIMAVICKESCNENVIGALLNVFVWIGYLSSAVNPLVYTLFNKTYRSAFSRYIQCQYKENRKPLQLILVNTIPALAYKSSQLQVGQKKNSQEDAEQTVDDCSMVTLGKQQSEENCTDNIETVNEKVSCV
UniProt P19327, whole entry: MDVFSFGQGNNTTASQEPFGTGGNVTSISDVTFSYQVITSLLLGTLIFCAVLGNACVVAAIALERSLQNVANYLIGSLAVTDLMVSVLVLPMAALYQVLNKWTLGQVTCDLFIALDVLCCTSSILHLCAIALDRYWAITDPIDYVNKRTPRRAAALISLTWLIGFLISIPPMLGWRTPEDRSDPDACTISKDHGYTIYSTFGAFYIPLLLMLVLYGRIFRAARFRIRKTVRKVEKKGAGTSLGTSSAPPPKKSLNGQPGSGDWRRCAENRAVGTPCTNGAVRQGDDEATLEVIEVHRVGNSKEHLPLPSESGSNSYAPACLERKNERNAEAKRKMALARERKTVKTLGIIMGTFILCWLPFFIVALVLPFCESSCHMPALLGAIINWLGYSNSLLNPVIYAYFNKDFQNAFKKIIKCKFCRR

In one test the target is serotonin 2 receptor (Rattus norvegicus, UniProt P14842). The experiment in a line: Binding test on [3H] ketanserin (serotonin 2 receptor). The conditions noted are these: read-out: 5HT2; [3H] ketanserin 0.3 nM, receptor fraction of rat cerebral cortex.
A further test deals with serotonin 1A receptor (Rattus norvegicus, UniProt P19327). As to the kind of experiment: Binding test on [3H] 8-hydroxy-dipropylaminotetralin (serotonin 1A receptor). The conditions noted are these: read-out: 5HT1a; [3H] 8-OH-DPAT 0.5 nM, receptor fraction of rat hippocampus.

Regarding `Cc1nc2sccn2c(=O)c1CCN1CCC(N2CCc3ccccc32)CC1` [Co. No. 5 given in WO96/23784, 1-{1-[2-(5-oxo-7-methyl-5H-pyrimidino[2,1-b][1,3]thiazol-6-yl)ethyl]piperidin-4-yl}indoline, reference compound], the Ki on serotonin 2 receptor was determined as 0.4 nM; on serotonin 1A receptor, 72.5 nM.
